From patent US11638716B2, “Compounds, compositions, and methods for the treatment of disease” (F-star Therapeutics, Inc., priority 2017, dated 2023)

System: NK-92 cells
Test: IFN-γ production by NK-92 cells (ELISA)
Assay type: cell-based
Details: NK-92 cells cultured in presence of IL-2
Description: FIG. 3A depicts NK-92 cells were stimulated with compound 4 alone in the absence of IL-2 for 23 hours. Levels of IFN-γ in culture supernatants were quantified using ELISA, and results were shown as pg/mL. Cells were also treated with control DMSO as well as cultured with medium in presence/absence of IL-2
FIG. 3B depicts that the growth of NK-92 cells is IL-2 dependent.

“IL-2: "the growth of NK-92 cells is IL-2 dependent. The presence of IL-2 is able to induce the production of IFN-γ"” was tested, and the “production of IFN-γ” value was “able to induce the production of IFN-γ”.
